Values quoted from earlier work in patent publication US20220008553A1, “ANTI-ERBB2 ANTIBODY-DRUG CONJUGATE AND COMPOSITION THEREOF, PREPARATION METHOD THEREFOR, AND USE THEREOF” (SICHUAN KELUN-BIOTECH BIOPHARMACEUTICAL CO., LTD., priority 2015, published 2022).

Test system: ErbB2-overexpressing breast cancer
Conditions: patients with immunohistochemistry (IHC) levels above 2+, Cobleigh et al. 1996; cited from earlier work

Trastuzumab: anti-ErbB2 antibody used clinically for ErbB2-overexpressing breast cancer; SEQ ID NO: 1 and 2
median response: 9.1 months
